# Reference: publication PMC10088587 (Archives of Microbiology, 2023)
# By UniProt entry, the sequences of proteins in these tests, tags left out. Residues count along the entry.
# UniProt P03452, 18-342 limits assumed: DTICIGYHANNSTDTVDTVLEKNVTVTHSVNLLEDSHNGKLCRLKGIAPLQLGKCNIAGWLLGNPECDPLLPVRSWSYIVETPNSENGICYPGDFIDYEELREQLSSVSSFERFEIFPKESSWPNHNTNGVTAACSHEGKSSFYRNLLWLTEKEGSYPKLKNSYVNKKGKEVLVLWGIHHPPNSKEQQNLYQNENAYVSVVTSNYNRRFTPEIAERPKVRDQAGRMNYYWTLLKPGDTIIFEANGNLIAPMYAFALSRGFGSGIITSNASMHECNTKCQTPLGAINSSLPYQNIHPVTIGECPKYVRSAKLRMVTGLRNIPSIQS
# UniProt P03452, 344-565 limits assumed: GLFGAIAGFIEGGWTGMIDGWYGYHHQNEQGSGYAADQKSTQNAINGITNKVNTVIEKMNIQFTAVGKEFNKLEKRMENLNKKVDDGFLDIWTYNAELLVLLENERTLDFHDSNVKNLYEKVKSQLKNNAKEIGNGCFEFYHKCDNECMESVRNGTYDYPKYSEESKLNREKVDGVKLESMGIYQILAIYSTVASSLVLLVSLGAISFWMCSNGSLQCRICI
# Where a name gives a salt, the structure may show the parent alone.
# Biological target: virus surface HA glycoprotein (Influenza A virus, UniProt P03452)
# Assay: Hemagglutination inhibition assay
# Type: biochemical
# Conditions: twofold dilutions from CC50, 4 HA unit of virus, 1% cRBC
smiles,measurement,value
"NC12CC3CC(CC(C3)C1)C2 [Ama, amantadine hydrochloride, reference compound]",Dilution to give HI +,2nd
